# AlphaSeq binding of Ab-14 heavy chain variants to a spike HR2 peptide

Source: Engelhart et al. 2022 (doi:10.1038/s41597-022-01779-4), MIT Lincoln Laboratory and A-Alpha Bio; data file from the FLAb repository.

Target peptide (SARS-CoV-2 spike, HR2 region): PDVDLGDISGINAS

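Phage display of a naive human antibody library on the peptide gave the parent. Variants in AAYL49 differ from the parent at up to three CDR positions; double and triple changes were sampled at random. Affinity was read by AlphaSeq, a pooled yeast mating assay with surface-displayed partners. Pairs that bind mate more often; barcode pairs of the diploids are counted by sequencing. A regression on co-assayed BCL2-family reference pairs converts the normalised counts of each replicate to an apparent Kd. Mating was done three times.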

Parent: Ab-14, a human scFv built as VH, a (GGGGS)3 linker, VL. Only the CDRs of the heavy chain vary.
VH: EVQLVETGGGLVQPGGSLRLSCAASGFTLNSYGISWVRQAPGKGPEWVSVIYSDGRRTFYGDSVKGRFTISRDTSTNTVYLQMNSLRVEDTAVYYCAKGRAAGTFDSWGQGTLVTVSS
VL: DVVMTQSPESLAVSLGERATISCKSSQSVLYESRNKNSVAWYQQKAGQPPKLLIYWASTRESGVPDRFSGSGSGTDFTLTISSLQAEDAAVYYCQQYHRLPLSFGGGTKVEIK

Each variant is given by its three heavy chain CDRs, as the data file delimits them; those of the parent are GFTLNSYGIS, VIYSDGRRTFYGDSVK, GRAAGTFDS.
Affinities are written as log10 Kd with Kd in nM; a lower number is a better binder.
A mean of the replicates is given; it leaves out those without a signal.
"no signal" marks a missing value. The strain was present, yet no cells mated with the target were sequenced in any replicate, which points to weak or no binding.
Parent in this assay: reference entry 0.65, copy in this library 4.11 (one replicate of three).
As a blank, each scFv also met three strains without target: over library AAYL49, 15% of these pairings were detected, typically at 4.06 and seldom below 2.83. The control count says in how many pairings with the empty strains this scFv gave a signal.

CDR-H1 | CDR-H2 | CDR-H3 | log10 Kd (nM), mean | replicates with signal | signal with controls
GFTLGSYGIS | VIYSDGRATFYGDSVK | GRAAGTFDW | 5.29 | 1 of 3 | 3 of 9
CFTLNSYGIS | VIYSDGRRTFTGDSVA | GRAAGTFDS | no signal | 0 of 3 | 0 of 9
GFTTNSYGIS | VIYSDGRRRFYGDSVY | GRAAGTFDS | 4.89 | 2 of 3 | 7 of 9
GFTLNSCGIS | VIYSDGVRTFYPDSVK | GRAAGTFDS | 2.67 | 2 of 3 | 1 of 9
GFTLNSSGIS | VIYSDQRRAFYGDSVK | GRAAGTFDS | no signal | 0 of 3 | 0 of 9
GFTLNSYGIS | QIKSDGRRTFYGQSVK | GRAAGTFDS | no signal | 0 of 3 | 0 of 9
GKTLNSYGIS | VIYSDGRRTPMGDSVK | GRAAGTFDS | 4.10 | 1 of 3 | 3 of 9
GFTLNRYGIS | VIYCDGRRTFYLDSVK | GRAAGTFDS | 4.79 | 1 of 3 | 3 of 9
GFTLNSYGIS | VHYSDYRRFFYGDSVK | GRAAGTFDS | no signal | 0 of 3 | 2 of 9
GFTLNFYGIS | VIYIDGRRTFYGDSVG | GRAAGTFDS | 5.44 | 1 of 3 | 2 of 9
RFTLNSYFIS | VIYSDGRRTFYGDSVK | GMAAGTFDS | 4.70 | 1 of 3 | 5 of 9
GFTLNSYGIS | VVYSDGRRTEYGDSVK | GRAATTFDS | 2.77 | 3 of 3 | 0 of 9
GFTLNSYNII | VIYSDGRRTFYGDSVK | GRAAGRFDS | no signal | 0 of 3 | 2 of 9
LFTLNSYGIS | VIYSDGRRTFYGDSVK | GRAAGSFDS | 4.63 | 3 of 3 | 3 of 9
GVTLNSYGIS | PIYSDGDRTFYGDSVK | GRAAGTFDS | no signal | 0 of 3 | 0 of 9
GFTLNSYGIS | VIYSDGRRTFYGDSVK | MRAAGTFFS | 4.04 | 1 of 3 | 0 of 9
GFTLNGYGIS | VIYSDGRRTFYGDSVK | SAAAGTFDS | 4.78 | 1 of 3 | 3 of 9
GFTLNSYGIS | VIYSDGRRTFYGDSVM | GRHAGTFDS | 2.13 | 3 of 3 | 0 of 9
GFTLNSYGIS | PIYSDGRRTFYGDSVC | GRAAGIFDS | no signal | 0 of 3 | 1 of 9
GFTLNSYGIS | VIYSDGRRTFYGDSVQ | GCAAGTFDS | 4.63 | 3 of 3 | 5 of 9
GFTLNSYGIS | VIISRGRITFYGDSVK | GRAAGTFDS | 2.47 | 1 of 3 | 0 of 9
GFTLNSYGES | VIYSDGRRTFYGDSVK | DRGAGTFDS | 5.21 | 2 of 3 | 2 of 9
GFTLNSYGIS | VIYSYGRRTFYVDSVK | GRAAGTFDS | no signal | 0 of 3 | 0 of 9
GFTLESYGIS | IIYSDGRRTFYGDSVK | GRAAATFDS | no signal | 0 of 3 | 0 of 9
GFRLNSPGIS | VIYSDDRRTFYGDSVK | GRAAGTFDS | no signal | 0 of 3 | 2 of 9
GFTLNSYGIS | VICSDGRRTFGGDSVK | GRAAGTFDS | 4.61 | 2 of 3 | 5 of 9
GFTLNSYGIS | VIYSDGRRTFEGDSVK | GRGAGTFDY | no signal | 0 of 3 | 2 of 9
GFCLNSYGIS | YIYSDGRRTFYRDSVK | GRAAGTFDS | no signal | 0 of 3 | 0 of 9
GFTLNSYGIS | VIYSIGRRTFKGDSVK | GRWAGTFDS | no signal | 0 of 3 | 0 of 9
GFTLNSYGIS | VIYSDGRRHFFGDSVK | GRAAGTFSS | 4.71 | 2 of 3 | 4 of 9
GFTLLSYGIS | VIMSDGRRTWYGDSVK | GRAAGTFDS | 3.37 | 1 of 3 | 2 of 9
GFTLNSYGIS | VIYNDGERTFYGDSVK | GRAAGGFDS | no signal | 0 of 3 | 0 of 9
GFTVNSYGIS | VIYSDGRRTFYGDSVK | GRSAGTFDS | 2.61 | 3 of 3 | 0 of 9
GFTLNSYGIS | VIYSRGRRTFYGDSVN | GWAAGTFDS | no signal | 0 of 3 | 0 of 9
GITLNSYGIS | VIYSDGRRTWYGDSVK | WRAAGTFDS | no signal | 0 of 3 | 0 of 9
GATLNSYGIV | VIYSDTRRTFYGDSVK | GRAAGTFDS | 4.57 | 1 of 3 | 3 of 9
GFTLNSYGIS | VIYSDGERTLYGDSVK | GRAAGFFDS | 3.88 | 1 of 3 | 0 of 9
GQTIWSYGIS | VIYSDGRRTFYGDSVK | GRAAGTFDS | 3.40 | 3 of 3 | 4 of 9
GFTLNSYGIS | VIYSYGRRTFYGWSVG | GRAAGTFDS | 4.04 | 1 of 3 | 1 of 9
GFTLNSYGIS | VIYSDGRRTFYGDSVP | GRAHGWFDS | no signal | 0 of 3 | 1 of 9
GFTTNSYGIS | VIDSDPRRTFYGDSVK | GRAAGTFDS | no signal | 0 of 3 | 3 of 9
CFTLCSYGIS | VIYSDGRRTFYGDSVC | GRAAGTFDS | no signal | 0 of 3 | 0 of 9
GATLNSYGIS | VIYSDGRRTFEGDSGK | GRAAGTFDS | 3.63 | 1 of 3 | 0 of 9
GFTLNSYCIS | VIYSDGRRTFYGDSVK | GRAGGTFDS | 4.51 | 3 of 3 | 5 of 9
RFTLNSYGIS | VIYSPGRRTFYGDSVK | GRAAGTFDK | no signal | 0 of 3 | 1 of 9
GFTMNSYGIS | VIYSDGRRTFYGDEVK | GRAAGTFCS | 3.08 | 1 of 3 | 0 of 9
GFTLNSYGIS | VIYSMGTRTFYGDSVK | GRATGTFDS | 3.12 | 1 of 3 | 0 of 9
GFTLNSYGIS | CIYSDGLRTFYMDSVK | GRAAGTFDS | 2.46 | 1 of 3 | 1 of 9
GFTLNSYGIS | VIYSDGRRTFYGISGK | GRAAGTFDS | no signal | 0 of 3 | 1 of 9
GFTLNSYGIS | VIYSDGTNTFYGDSVK | HRAAGTFDS | no signal | 0 of 3 | 0 of 9
GFTLNSYGIS | VIYGDGRRTFYGDLVK | GRAADTFDS | no signal | 0 of 3 | 0 of 9
GFTLNSYGIS | VIYSDGRRTFYGDSVH | GRAALTVDS | no signal | 0 of 3 | 0 of 9
GFTLNPYGIS | VPYSDGRRTFYGDNVK | GRAAGTFDS | no signal | 0 of 3 | 2 of 9
GFTLNSYGIS | VIYSDGRRHFYGDHVK | GRAAGTFDA | no signal | 0 of 3 | 0 of 9
GFTLNRYGIS | EIYSDGRRTFYGDSVK | GRYAGTFDS | 4.15 | 1 of 3 | 0 of 9
GFTLNSYGIS | VIYSDGRRTFYGASVK | GRMAGPFDS | 4.20 | 3 of 3 | 5 of 9
GFTLNSYYIS | FIYSDGKRTFYGDSVK | GRAAGTFDS | no signal | 0 of 3 | 3 of 9
GFTLNSYGIS | VIYSDGRRLFYNDIVK | GRAAGTFDS | 2.71 | 3 of 3 | 2 of 9
GFTLNRYGIS | VIWSDGRRTFYGDSVK | GRAAGTIDS | no signal | 0 of 3 | 0 of 9
GFTLNSYGIS | VIYSDGRRTFYGDSVK | GTAAGTMDN | no signal | 0 of 3 | 0 of 9
GFTSNSYGIS | VIYSDGRRTDYGDSVK | GRAAHTFDS | no signal | 0 of 3 | 0 of 9
GFTLNSYGIS | VIYSDGRRTMQGDSVK | GRMAGTFDS | 3.03 | 2 of 3 | 1 of 9
GFTLNSYGIS | VIYSDGRRTFYGDSVK | GRAASTHDE | no signal | 0 of 3 | 0 of 9
GFTLNSTGIS | VICSDGRRTFYGDSVK | YRAAGTFDS | 5.04 | 2 of 3 | 3 of 9
GFTLNSYGIS | VIYSDGRRKFYGDSVK | GRAAATFDS | 2.67 | 3 of 3 | 2 of 9
GFPLNSYGIS | VIYSDYRRTFYGDSRK | GRAAGTFDS | 4.64 | 2 of 3 | 2 of 9
HFTLNSYGIS | VIYSDGAITFYGDSVK | GRAAGTFDS | 3.93 | 2 of 3 | 9 of 9
GFTLNSYGKS | VIYSDARRTHYGDSVK | GRAAGTFDS | 4.01 | 1 of 3 | 2 of 9
GFTLNSYGIS | VIYQDGRRTFYGDSVK | GRTAGTFDS | no signal | 0 of 3 | 0 of 9
GFTLNSYGIS | VIYSDGRRTFYGDSVW | GVAAGTFDQ | 2.27 | 3 of 3 | 1 of 9
GFTENSYGIS | VIYPDGRRTYYGDSVK | GRAAGTFDS | 4.24 | 3 of 3 | 2 of 9
GGTLNSYGIS | VIYHDGRRTFYGDSVK | GRRAGTFDS | 3.24 | 3 of 3 | 5 of 9
GFTLNSAGIS | VIYSDGRRTFYVDSVK | GNAAGTFDS | 1.54 | 3 of 3 | 0 of 9
GFTLYSYGIM | VIYSDGRRTFYGDSVK | GNAAGTFDS | no signal | 0 of 3 | 3 of 9
GFTENSYGIS | VIYSDGRRTFYGDSVK | GRAGGTFDH | no signal | 0 of 3 | 0 of 9
GFTLNDYGCS | VIYSDGRRTFYGDSVV | GRAAGTFDS | no signal | 0 of 3 | 1 of 9
GFTLCSYGIS | VKYSDGRRTFYGDSVK | GRAAGTFPS | no signal | 0 of 3 | 1 of 9
GFTLNSYGIS | VIYSDGRRVFYGDSVV | GRAAGTFDS | 1.44 | 3 of 3 | 0 of 9
GFTGNSYGIS | VIYSDGRATFYGDQVK | GRAAGTFDS | no signal | 0 of 3 | 0 of 9

Excerpt, the final 11 entries:

| CDR-H1 | CDR-H2 | CDR-H3 | log10 Kd (nM), mean | replicates with signal | signal with controls |
|---|---|---|---|---|---|
| GFTLNSYGIS | VIYQDGRRTFYGDSVK | GRTAGTFDS | no signal | 0 of 3 | 0 of 9 |
| GFTLNSYGIS | VIYSDGRRTFYGDSVW | GVAAGTFDQ | 2.27 | 3 of 3 | 1 of 9 |
| GFTENSYGIS | VIYPDGRRTYYGDSVK | GRAAGTFDS | 4.24 | 3 of 3 | 2 of 9 |
| GGTLNSYGIS | VIYHDGRRTFYGDSVK | GRRAGTFDS | 3.24 | 3 of 3 | 5 of 9 |
| GFTLNSAGIS | VIYSDGRRTFYVDSVK | GNAAGTFDS | 1.54 | 3 of 3 | 0 of 9 |
| GFTLYSYGIM | VIYSDGRRTFYGDSVK | GNAAGTFDS | no signal | 0 of 3 | 3 of 9 |
| GFTENSYGIS | VIYSDGRRTFYGDSVK | GRAGGTFDH | no signal | 0 of 3 | 0 of 9 |
| GFTLNDYGCS | VIYSDGRRTFYGDSVV | GRAAGTFDS | no signal | 0 of 3 | 1 of 9 |
| GFTLCSYGIS | VKYSDGRRTFYGDSVK | GRAAGTFPS | no signal | 0 of 3 | 1 of 9 |
| GFTLNSYGIS | VIYSDGRRVFYGDSVV | GRAAGTFDS | 1.44 | 3 of 3 | 0 of 9 |
| GFTGNSYGIS | VIYSDGRATFYGDQVK | GRAAGTFDS | no signal | 0 of 3 | 0 of 9 |